{
  "source": "ChEMBL document CHEMBL1144877",
  "about": "“A comparison of phosphonothioic acids with phosphonic acids as phosphatase inhibitors” (2003)",
  "key": {"[1]": {"assay": "Inhibitory activity against Serine/Threonine Protein Phosphatase (PP2C); Precipitation"}, "[2]": {"assay": "Inhibitory activity against Serine/Threonine Protein Phosphatase (Lambda protein phosphatase); Precipitation"}},
  "data": [
    {"compound": "O=P(O)(O)Cc1ccccc1", "values": [
      {"measurement": "NA", "setting": "[1]", "value": "Insoluble"},
      {"measurement": "NA", "setting": "[2]", "value": "Insoluble"}
    ]}
  ]
}
